Structures are written as SMILES. pIC50: −log10 of the molar value.

Amino acid sequences for entries named in this document (tags omitted). A change or cut given only in a name is not applied to a line headed by its entry.
UniProt P11511: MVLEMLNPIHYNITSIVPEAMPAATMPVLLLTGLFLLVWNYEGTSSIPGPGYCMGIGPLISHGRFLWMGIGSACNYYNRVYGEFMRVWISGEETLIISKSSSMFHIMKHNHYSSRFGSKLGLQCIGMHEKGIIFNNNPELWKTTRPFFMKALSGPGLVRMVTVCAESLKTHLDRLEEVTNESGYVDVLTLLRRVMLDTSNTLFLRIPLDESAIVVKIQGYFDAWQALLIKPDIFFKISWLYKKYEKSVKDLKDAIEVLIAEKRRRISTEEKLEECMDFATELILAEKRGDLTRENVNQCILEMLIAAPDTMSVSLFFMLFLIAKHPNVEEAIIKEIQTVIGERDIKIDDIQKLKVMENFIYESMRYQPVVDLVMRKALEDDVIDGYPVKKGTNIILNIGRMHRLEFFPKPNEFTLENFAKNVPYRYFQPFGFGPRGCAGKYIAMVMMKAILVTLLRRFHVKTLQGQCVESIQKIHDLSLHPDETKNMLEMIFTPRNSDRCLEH

For 1 compound, IC50 results are on record in BindingDB's records for doi:10.1021/jm960047o (Tohoku College of Pharmacy, 1996).

The target in the experiment is Aromatase (Homo sapiens, UniProt P11511).

The pIC50 is the IC50 on a negative log10 scale, so that one unit is a factor of ten. A higher pIC50 goes with a low IC50. Take `CC12CCC3C(CCC4=CCCCC43C)C1CCC2=O` (stereo unspecified): the pIC50 is 7.22.
